Paper PMC5415745, “Drug-transporter mediated interactions between anthelminthic and antiretroviral drugs across the Caco-2 cell monolayers” (BMC Pharmacology & Toxicology, 2017)
Several values for one entry are separate records, joined by “and”; a condition that tells them apart may be missing. Equal entries are not always repeated.

System: Caco-2 cell monolayers
Test: Bidirectional (AP→BL, BL→AP) drug transport across Caco-2 cell monolayers in transwells: cumulative transport, Papp, efflux ratio; HPLC or radiolabeled assay
[1] = PZQ alone (SQV experiment), 180 min, samples 1-3
[2] = SQV alone, 240 min, individual experiments 1-3

CC[C@H](C)[C@H]1O[C@]2(CC[C@@H]1C)C[C@@H]1C[C@@H](C/C=C(\C)[C@@H](O[C@H]3C[C@H](OC)[C@@H](O[C@H]4C[C@H](OC)[C@@H](O)[C@H](C)O4)[C@H](C)O3)[C@@H](C)/C=C/C=C3\CO[C@@H]4[C@H](O)C(C)=C[C@@H](C(=O)O1)[C@]34O)O2 [IVM, ivermectin]
Basal to apical transport (cumulative, receiver), Mean (120 min, mean n=3): 1.36 pmol
Basal to apical transport (IVM alone (SQV experiment), 60 min, samples 1-3): 0.01353 pmol
Basal to apical transport (IVM alone (SQV experiment), 180 min, samples 1-3): 0.02547 pmol and 0.02552 pmol
Basal to apical transport (IVM alone, 60 min, individual experiments 1-3): 16.19 pmol
Basal to apical transport (IVM alone, 180 min, individual experiments 1-3): 25.52 pmol
Basal to apical transport (IVM alone, 240 min, individual experiments 1-3): 32.09 pmol
Basal to apical transport ([3H] IVM alone, 60 min, individual experiments 1-3): 0.01356 pmol
Mean ER value (efflux ratio, PappBL-AP/PappAP-BL) (after 60 min (3600 sec), mean of individual sample ERs (n=3), drug alone, or label 'A + B' = A in presence of B): 1.19

O=C(C1CCCCC1)N1CC(=O)N2CCc3ccccc3C2C1 (centres unmarked) [PZQ, praziquantel]
Apical to basal transport Mean (PZQ alone (EFV experiment), 60 min, mean): 31.65 pmol
Basal to apical transport (PZQ alone (EFV experiment), 240 min, samples 1-3): 51.94 pmol
Basal to apical transport (PZQ alone (NVP experiment), 180 min, samples 1-3): 51.94 pmol
Apical to basal transport [1]: 26.92 pmol and 26.96 pmol
Basal to apical transport [1]: 22.42 pmol

CC(C)(C)NC(=O)[C@@H]1C[C@@H]2CCCC[C@@H]2CN1C[C@@H](O)[C@H](Cc1ccccc1)NC(=O)[C@H](CC(N)=O)NC(=O)c1ccc2ccccc2n1 [SQV, saquinavir]
Basal to apical transport (SQV alone (PZQ experiment), 240 min, samples 1-3): 20.22 pmol
Apical to basal transport [2]: 11.24 pmol
Basal to apical transport [2]: 22.46 pmol
Apical to basal transport Conc. Apical (SQV alone, after 60 min, samples 1-3): 27.69 pmol
